Data from patent US9539237B2, “Compositions and methods for drug-sensitization or inhibition of a cancer cell” (The Texas A&M University System, priority 2012, dated 2017).

The chains behind the UniProt entries cited, without tags or fusion partners.
UniProt P08183, whole entry: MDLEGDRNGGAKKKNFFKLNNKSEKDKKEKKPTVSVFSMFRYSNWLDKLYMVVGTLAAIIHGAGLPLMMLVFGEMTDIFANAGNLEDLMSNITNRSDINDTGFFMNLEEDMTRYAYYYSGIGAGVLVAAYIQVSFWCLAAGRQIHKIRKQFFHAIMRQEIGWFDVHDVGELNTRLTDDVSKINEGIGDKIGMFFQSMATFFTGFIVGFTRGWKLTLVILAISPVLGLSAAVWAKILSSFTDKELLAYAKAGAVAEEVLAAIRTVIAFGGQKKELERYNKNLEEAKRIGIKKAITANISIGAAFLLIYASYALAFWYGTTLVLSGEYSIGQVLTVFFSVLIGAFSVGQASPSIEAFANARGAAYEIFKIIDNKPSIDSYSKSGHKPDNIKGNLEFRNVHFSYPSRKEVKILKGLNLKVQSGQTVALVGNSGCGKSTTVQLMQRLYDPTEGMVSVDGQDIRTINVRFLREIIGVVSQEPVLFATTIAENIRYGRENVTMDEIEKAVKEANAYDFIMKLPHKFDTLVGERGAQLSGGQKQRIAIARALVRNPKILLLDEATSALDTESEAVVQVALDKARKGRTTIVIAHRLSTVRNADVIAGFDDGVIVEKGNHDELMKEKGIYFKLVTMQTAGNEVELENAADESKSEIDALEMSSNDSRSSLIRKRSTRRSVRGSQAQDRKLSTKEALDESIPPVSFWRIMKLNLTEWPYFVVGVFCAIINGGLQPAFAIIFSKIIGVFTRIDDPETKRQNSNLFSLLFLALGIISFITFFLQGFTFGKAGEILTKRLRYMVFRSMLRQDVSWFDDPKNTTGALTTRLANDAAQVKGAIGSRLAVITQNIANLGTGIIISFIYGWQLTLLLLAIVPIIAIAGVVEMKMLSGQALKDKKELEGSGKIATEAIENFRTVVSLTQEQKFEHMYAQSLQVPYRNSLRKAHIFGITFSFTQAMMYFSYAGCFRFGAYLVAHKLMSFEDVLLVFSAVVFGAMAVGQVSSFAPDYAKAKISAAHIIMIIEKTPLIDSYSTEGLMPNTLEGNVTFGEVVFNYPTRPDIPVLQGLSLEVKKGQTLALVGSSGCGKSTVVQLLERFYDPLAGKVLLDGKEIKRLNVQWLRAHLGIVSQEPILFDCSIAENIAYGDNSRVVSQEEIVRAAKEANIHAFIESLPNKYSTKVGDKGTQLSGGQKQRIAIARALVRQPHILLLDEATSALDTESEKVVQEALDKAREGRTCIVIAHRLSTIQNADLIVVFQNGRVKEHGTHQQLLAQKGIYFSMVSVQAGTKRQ

Assays:
ABCB1 pumps [1] = biological target: T1, ABCB1 pumps (Homo sapiens, UniProt P08183); conditions: NCI/ADR-RES and G3 cells
ABCB1 pumps [2] = biological target: T1, ABCB1 pumps; test: Calcein-AM efflux assay

4-deoxy-3,4[2-spiro-[1-(isobutyloxycarbonyl)-piperidin-4-yl]]-(1H)-imidazo-(2,5-dihydro)rifamycin S [RTI-79]
Inhibition of efflux pumps (ABCB1 pumps [1]): clear inhibition
Inhibition of ABCB1 compared with additional rifabutin derivatives (ABCB1 pumps [2]): strongest inhibitor
